# Screens as filed in PubChem.
# PglD inh: blocks C. jejuni PglD acetyltransferase activity | hit rate 0.098% among 360,000 | purified PglD enzyme, DTNB colorimetric CoA detection | AID 602405 | inhibition, % at 12.5 µM; in the data active means inhibition above about 16%, passing the limit was not always enough; inconclusive means no clear call, values can overlap the other calls
# PDI turbidity: PDI (human) enzyme inhibition | hit rate 0.052% among 350,000 | PDI insulin aggregation turbidity, A650, 90 min | P07237 | inhibition, % at 10 µM;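 active means mean inhibition across replicates of 30% or more, whatever share of single replicates reach that level; inconclusive means mean inhibition below 30% while every single replicate reaches 30%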
# ERp5 inh: blocks human ERp5 reductase activity on insulin; AID 651711; inhibition, % at 9.99 µM; ERp5 insulin aggregation, absorbance 650 nm, 90 min; hit rate 0.05% among 350,000;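 active means mean replicate inhibition above about 25%, with every replicate also reaching it, limit read from the data, passing the limit was not always enough; inconclusive means only one of those two criteria met; inactive means neither criterion met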
# ARNT TACC3 PPI: disruptors of human ARNT/TACC3 interaction | Q9Y6A5 | AlphaScreen His-ARNT PAS-B/GST-TACC3 binding, luminescence; TACC3 fragment carries E629A point mutation | inhibition, % at 9.99 µM | hit rate 0.66% among 390,000 | AID 623870;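 active means mean inhibition of replicates at least 50% and at least half of replicates each reaching 50%; inconclusive means half or more replicates reach 50% but mean below 50%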;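 further: 0% = complete ARNT plus TACC3 wells and 100% = ARNT alone without TACC3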
# UUG fidelity: modulators of start codon recognition fidelity in yeast; S. cerevisiae UUG-firefly luciferase reporter, luminescence/redox ratio; activity score, % at 18.7 µM; hit rate 0.13% among 350,000; AID 602363;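 active = replicate mean at a twofold rise or more, about +100% in these data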;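 note: firefly luciferase made from a UUG start codon reports start codon fidelity; reporter light over untreated wells divided by growth signal over untreated wells; some hits fall short of that in this replicate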
# FGF22 binding: FGF22 (human) thermal shift binding; Q9HCT0; recombinant FGF22 thermal shift, SYPRO orange fluorescence; percent of sucrose octasulfate shift, DMSO zero; activity (Tm shift, normalised), % at 9.99 µM; hit rate 1.5% among 340,000;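 active means mean Tm shift, scaled 0 neutral to 100 positive control, at about 1.3% or above, every replicate too, limit read from the data; inconclusive means no clear call, values can overlap the other calls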
# ARNT Alpha ctr-1: AlphaScreen artifact in ARNT/TACC3 counter-screen; shares compounds with ARNT TACC3 PPI; His-ARNT PASB-GST AlphaScreen artifact counter-screen, luminescence; AC50, µM (titrated, usually from 68 µM), inactives show at the top dose activity change, negative = signal decrease; hit rate 50% among 1,200; AID 651705;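 active means every separate test run was called active for a drop in luminescence, with AC50 within twice the top valid dose, actives reach about 71 µM in these data; inconclusive means the separate test runs disagree in their calls; inactive means all runs inactive, including signal change in the wrong direction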
# ARNT Alpha ctr-2: counter-screen for ARNT-TACC3 inhibitors: AlphaScreen artifacts; hit rate 70% among 45; Dual-tagged His-ARNT PASB-GST AlphaScreen artifact counter-screen; shares compounds with ARNT TACC3 PPI; AC50, µM;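 active means luminescence drop, with half-maximal potency fitted within twice the sample's top valid dose, cut at about 70 µM in these data; inactive means the rest, including signal moving the wrong way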
# * marks the source's active call; other numbers are inactive results; ? = inconclusive; . = no result; [ ] = dose if it differs, or a comment. Sampled rows, rich in hits. Any-hit rate of the full collection: about 1.9%.
SMILES,PglD inh,PDI turbidity,ERp5 inh,ARNT TACC3 PPI,UUG fidelity,FGF22 binding,ARNT Alpha ctr-1,others
O=C(Nc1nnc(C2=COCCO2)o1)c1ccc(S(=O)(=O)N2CCCCC2)cc1,.,23,2,36,.,0,.,ARNT Alpha ctr-2=>136
CS(=O)(=O)c1ccccc1-c1nnc(NC(=O)c2ccc(S(=O)(=O)N3CCCC3)cc2)o1,5,-1,4,29,-21,0,.,
O=C(Nc1nnc(C2=COCCO2)o1)c1ccc(S(=O)(=O)N2CCCC2)cc1,.,1,5,45,.,0,.,
CC1CCN(S(=O)(=O)c2ccc(C(=O)Nc3nnc(C4=COCCO4)o3)cc2)CC1,0,0,-1,62*,-17,0,-25%,ARNT Alpha ctr-2=>136
O=C(Nc1nnc(-c2cccs2)o1)c1ccc(S(=O)(=O)N2CCOCC2)cc1,.,1,1,45*,.,44*,34µM*,
CS(=O)(=O)c1cccc(C(=O)Nc2nnc(C3=COCCO3)o2)c1,.,1,7,59*,.,.,-15%,
O=C(Nc1nnc(C2=COCCO2)o1)c1cccc(Br)c1,3,0,4,.,-33,0,.,
CO[C@H]1CN(C)C(=O)c2ccc(NS(=O)(=O)c3ccc(C)cc3)cc2OC[C@H](C)N(C(=O)NC(C)C)C[C@@H]1C,.,.,-4,.,.,0,.,
Cc1ccc(-n2c(-c3ccc(Br)cc3)c[n+]3c2CCc2ccc4cccnc4c2-3)cc1,-2,-8,.,59*,-11,.,-11%,
CCOc1cc(/C=C2\SC(=S)N(N3CCOCC3)C2=O)ccc1O,.,.,6,-3,.,0,.,
CCOc1cc(/C=C2\SC(=N)N(c3nccs3)C2=O)ccc1OCCN1CCOCC1,-9,-2,3,51*,-28,0,70µM*,
CCN(CC)CCCNc1nc2ccccc2c2[nH]c3ccc(OC)cc3c12,.,60*,7,57*,.,0,-34%,
O=C(C[C@H]1CC[C@@H](NC(=O)c2ccccc2)[C@H](CO)O1)NCCc1ccncc1,-2,.,-2,-8,-5,0,.,
Cc1ccc(S(=O)(=O)/N=C2\C=C(Nc3ccc(O)cc3)C(=O)c3ccccc32)cc1,4,-13,.,54*,-28,.,5.2µM*,
CO[C@@H]1CN(C)C(=O)c2cc(NC(=O)C3CCCC3)ccc2OC[C@@H](C)N(CCC(F)(F)F)C[C@@H]1C,-1,.,-1,-5,6,0,.,
Cc1cc(C(=O)Nc2cccc3c2O[C@H](CN(C)C(=O)Nc2c(C)noc2C)[C@@H](C)CN([C@@H](C)CO)C3=O)n(C)n1,-4,.,11,-8,-17,0,.,
COc1ccccc1N1CCN(Cc2ccc(O)c3ncccc23)CC1,-2,-7,.,70*,-33,.,2.8µM*,
COc1ccccc1N1CCN(Cc2ccc(OC)c(OC)c2OC)CC1,2,3,.,3,-9,.,.,
Oc1c(CN2CCOCC2)cc(COCc2ccccc2)c2cccnc12,2,1,.,56*,-40,.,4µM*,
O=C(Oc1c(CN2CCOCC2)cc(Cl)c2cccnc12)c1ccccc1Br,2,5,4,63*,-10,0,33µM*,
CCOC(=O)N1CCN(Cc2cc(Cl)c3cccnc3c2O)CC1,.,.,2,.,.,0,.,
Oc1c(CN2CCN(c3ccccc3)CC2)cc(Br)c2cccnc12,-1,-3,8,59*,-26,0,2.4µM*,
COc1ccc(NC(=O)Nc2ccc3c(c2)[C@H]2C[C@H](CC(=O)NCc4ccc5c(c4)OCO5)O[C@H](CO)[C@H]2O3)cc1,0,.,5,-13,5,0,.,
CC(C)[C@@H]1COCc2cn(nn2)CC[C@@H](Cc2ccccc2)C(=O)N1,.,.,1,.,.,0,.,
CCNC(=O)C[C@@H]1CC[C@H]2[C@@H](COC[C@H](O)CN2Cc2ccncc2)O1,0,.,-1,1,-14,0,.,

# A run of entries from further up:
SMILES,PglD inh,PDI turbidity,ERp5 inh,ARNT TACC3 PPI,UUG fidelity,FGF22 binding,ARNT Alpha ctr-1,others
CCOc1cc(/C=C2\SC(=S)N(N3CCOCC3)C2=O)ccc1O,.,.,6,-3,.,0,.,
CCOc1cc(/C=C2\SC(=N)N(c3nccs3)C2=O)ccc1OCCN1CCOCC1,-9,-2,3,51*,-28,0,70µM*,

# Quoted at random: four entries already listed
SMILES,PglD inh,PDI turbidity,ERp5 inh,ARNT TACC3 PPI,UUG fidelity,FGF22 binding,ARNT Alpha ctr-1,others
CCOc1cc(/C=C2\SC(=N)N(c3nccs3)C2=O)ccc1OCCN1CCOCC1,-9,-2,3,51*,-28,0,70µM*,
Oc1c(CN2CCN(c3ccccc3)CC2)cc(Br)c2cccnc12,-1,-3,8,59*,-26,0,2.4µM*,
O=C(Oc1c(CN2CCOCC2)cc(Cl)c2cccnc12)c1ccccc1Br,2,5,4,63*,-10,0,33µM*,
CC(C)[C@@H]1COCc2cn(nn2)CC[C@@H](Cc2ccccc2)C(=O)N1,.,.,1,.,.,0,.,

# Remaining list, next part
SMILES,PglD inh,PDI turbidity,ERp5 inh,ARNT TACC3 PPI,UUG fidelity,FGF22 binding,ARNT Alpha ctr-1,others
COc1cccc(-c2ccc3n(c2=O)C[C@H]2[C@H](CO)[C@@H](C(=O)NCC4CC4)N(C)[C@@H]32)c1,1,.,.,4,.,0,.,
CC(C)NC(=O)N1[C@@H](CO)[C@@H]2c3ccccc3N(C(=O)Nc3cccc(Cl)c3)C[C@@H]21,-2,.,-5,9,6,0,.,
COCc1cc(CN2CCN(C)CC2)c(O)c2ncccc12,1,3,.,67*,-36,.,10µM*,
CCOc1ccc2c(c1)c(N=NC(=N)N)c(O)n2C,-2,?,-9,36*,0,0,-25%,
CO[C@H]1CN(C)C(=O)c2ccc(NC(C)=O)cc2OC[C@@H](C)N(C(=O)Cc2cccnc2)C[C@H]1C,-1,.,-3,3,-8,.,.,
CC(=O)N1CCc2[nH]c3ccc(C)cc3c2C1,-4,-3,-9,36*,-28,0,-1%,
COc1ccc(-c2cnc3c(c2)C(=O)N([C@@H](C)CO)C[C@H](C)[C@@H](CN(C)Cc2cccnc2)O3)cc1,0,.,0,108*,2,0,-7%[38 µM],
COc1ccc(-c2cnc3c(c2)C(=O)N([C@H](C)CO)C[C@H](C)[C@H](CN(C)Cc2cccnc2)O3)cc1,3,.,-7,104*,7,0,4%[42 µM],
COc1ccc(-c2cnc3c(c2)C(=O)N([C@@H](C)CO)C[C@@H](C)[C@@H](CN(C)Cc2cccnc2)O3)cc1,2,.,-3,85*,0,0,-5%[38 µM],
CCOc1ccc(/C=N/Nc2cc(N3CCOCC3)ncn2)c(O)c1,-4,-7,3,.,-13,0,.,
CCCOc1ccc(/C=N/Nc2cc(N3CCOCC3)ncn2)c(O)c1,11,-6,1,58*,-15,0,-27%,
CO[C@@H]1CN(C)C(=O)c2cc(NC(=O)c3ccccc3)ccc2OC[C@@H](C)N(C(=O)C2CC2)C[C@H]1C,3,.,-6,12*,8,0,2%[38 µM],
CO[C@H]1CN(C)C(=O)c2cc(NC(=O)NC3CCCCC3)ccc2OC[C@H](C)N(CC2CC2)C[C@@H]1C,1,.,-2,57*,-1,0,-3%[42 µM],
CO[C@H]1CN(C)C(=O)c2cc(NC(=O)NC3CCCCC3)ccc2OC[C@@H](C)N(CC2CC2)C[C@H]1C,0,.,1,-8,-11,0,.,
C[C@@H]1CN([C@@H](C)CO)C(=O)c2cc(C#CCN(C)C)cnc2O[C@H]1CN(C)C(=O)CN1CCOCC1,3,.,8,-9,5,0,.,
O=c1cc(C(F)(F)F)nc(-n2[nH]c3c(c2=O)CCCC3)[nH]1,3,-5,.,56*,-32,.,-23%,
CCN(CC)S(=O)(=O)c1cccc(C(=O)N/N=C/c2ccc(O)c(O)c2O)c1,.,4,.,59*,.,.,19µM*,
